Test results from PubChem BioAssay AID624260 (Broad Institute, 2012).
The list shows a part of the results, in another mix than the full data. The source made the active and inactive calls. No stated cut-off is given here; in the data, active means inhibition above about 54% (passing the limit was not always enough); inconclusive means no clear call, values can overlap the other calls.

Amino acid sequences for entries named in this document (tags omitted). A change or cut given only in a name is not applied to a line headed by its entry.
UniProt O96028: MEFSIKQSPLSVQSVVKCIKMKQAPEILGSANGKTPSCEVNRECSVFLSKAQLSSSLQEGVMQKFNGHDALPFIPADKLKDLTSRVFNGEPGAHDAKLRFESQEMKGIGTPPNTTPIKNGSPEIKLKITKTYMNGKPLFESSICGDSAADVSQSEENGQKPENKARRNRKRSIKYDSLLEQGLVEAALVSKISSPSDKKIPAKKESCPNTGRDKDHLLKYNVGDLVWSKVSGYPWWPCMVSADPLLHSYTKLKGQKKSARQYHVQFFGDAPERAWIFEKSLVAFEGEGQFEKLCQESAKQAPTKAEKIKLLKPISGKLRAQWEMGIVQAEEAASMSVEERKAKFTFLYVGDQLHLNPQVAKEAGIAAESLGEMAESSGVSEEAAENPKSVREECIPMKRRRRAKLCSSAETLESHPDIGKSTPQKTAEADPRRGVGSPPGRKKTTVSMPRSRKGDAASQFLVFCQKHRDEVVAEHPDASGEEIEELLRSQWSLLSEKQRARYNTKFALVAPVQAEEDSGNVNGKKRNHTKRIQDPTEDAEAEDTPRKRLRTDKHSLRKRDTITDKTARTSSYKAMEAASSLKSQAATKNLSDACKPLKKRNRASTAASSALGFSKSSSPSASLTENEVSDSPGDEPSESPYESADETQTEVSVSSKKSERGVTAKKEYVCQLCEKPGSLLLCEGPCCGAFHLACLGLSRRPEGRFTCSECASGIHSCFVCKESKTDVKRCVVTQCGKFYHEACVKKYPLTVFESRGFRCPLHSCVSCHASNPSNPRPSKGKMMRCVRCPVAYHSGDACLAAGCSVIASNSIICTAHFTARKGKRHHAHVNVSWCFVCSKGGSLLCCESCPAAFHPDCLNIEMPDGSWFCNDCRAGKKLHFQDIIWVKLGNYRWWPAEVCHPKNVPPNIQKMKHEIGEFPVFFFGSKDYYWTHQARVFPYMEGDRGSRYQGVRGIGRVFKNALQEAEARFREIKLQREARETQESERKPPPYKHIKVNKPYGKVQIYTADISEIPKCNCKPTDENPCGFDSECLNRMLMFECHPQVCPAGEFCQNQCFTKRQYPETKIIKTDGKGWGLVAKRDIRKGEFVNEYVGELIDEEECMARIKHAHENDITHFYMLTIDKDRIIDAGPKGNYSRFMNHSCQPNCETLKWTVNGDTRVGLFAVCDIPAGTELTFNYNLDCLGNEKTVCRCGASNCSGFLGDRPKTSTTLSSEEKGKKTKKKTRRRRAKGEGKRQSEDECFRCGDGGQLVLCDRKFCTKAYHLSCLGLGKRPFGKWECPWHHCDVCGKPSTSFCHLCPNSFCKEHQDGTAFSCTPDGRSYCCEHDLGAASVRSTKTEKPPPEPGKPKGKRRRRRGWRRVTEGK

Target: Histone-lysine N-methyltransferase NSD2 (Homo sapiens) (UniProt O96028)
Assay: NSD2 histone methyltransferase activity blockers – biochemical, plate reader, single point, primary screen (AID 624260);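 further: inhibitors reduce the monomethyl H3K36 fluorescence signal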
Conditions: NSD2-SET H3K36me1 DELFIA fluorescence, at 12.5 µM, stronger effect = higher value

Row | SMILES | inhibition
1 | COc1ccc(CN2/C(=N/P(=O)(Oc3ccccc3)Oc3ccccc3)CC(C)=CC2C)cc1 (stereo not given) | inactive: 16.7%
2 | COc1ccc(CN2/C(=N\P(=O)(Oc3ccccc3)Oc3ccccc3)Cc3ccccc3C2C2CC2)cc1 (stereo not given) | inactive: 5.4%
3 | CN(C(=O)Cc1ccc(Cl)c(Cl)c1)C1CCCCC1N1CCCC1 (stereo not given) | inactive: 0.0965%
4 | CN(C(=O)Cc1ccc(Cl)c(Cl)c1)[C@H]1CCCC[C@@H]1N1CCCC1 | inactive: 1.5%
5 | C=CC1C=C(C)C/C(=N\P(=O)(Oc2ccccc2)Oc2ccccc2)N1Cc1ccc(OC)cc1 (stereo not given) | inactive: 19.3%
